Patent US9221831B2, “Buprenorphine analogs” (dated 2015)
Only a part of the results on these compounds is given; other tests are left out. Where no limit is named, active and inactive come without a cut-off here.

Sequences of proteins named here, by UniProt entry; tags and fusion partners are left off.
UniProt P41145, whole entry: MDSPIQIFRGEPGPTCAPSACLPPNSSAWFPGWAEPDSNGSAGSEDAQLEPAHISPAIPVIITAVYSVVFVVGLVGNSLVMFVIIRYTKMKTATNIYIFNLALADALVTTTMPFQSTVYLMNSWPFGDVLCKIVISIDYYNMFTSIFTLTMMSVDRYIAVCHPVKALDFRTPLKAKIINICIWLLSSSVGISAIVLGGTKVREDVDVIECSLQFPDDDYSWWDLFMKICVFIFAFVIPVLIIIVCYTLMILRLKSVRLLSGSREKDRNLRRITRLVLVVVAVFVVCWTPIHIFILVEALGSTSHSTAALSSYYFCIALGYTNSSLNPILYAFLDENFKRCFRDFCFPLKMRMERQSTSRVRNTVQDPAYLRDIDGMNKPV
UniProt P35372, whole entry: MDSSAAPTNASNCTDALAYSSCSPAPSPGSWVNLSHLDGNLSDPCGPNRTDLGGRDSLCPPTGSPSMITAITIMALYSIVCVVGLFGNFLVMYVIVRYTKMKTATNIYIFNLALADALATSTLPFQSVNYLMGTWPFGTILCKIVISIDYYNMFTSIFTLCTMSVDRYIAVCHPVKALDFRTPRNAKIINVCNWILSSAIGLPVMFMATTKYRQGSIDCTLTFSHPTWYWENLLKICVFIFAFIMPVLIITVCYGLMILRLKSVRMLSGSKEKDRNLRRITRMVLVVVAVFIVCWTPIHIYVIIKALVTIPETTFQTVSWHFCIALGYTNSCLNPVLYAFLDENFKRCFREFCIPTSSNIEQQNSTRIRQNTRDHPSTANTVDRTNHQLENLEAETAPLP
UniProt P41146, whole entry: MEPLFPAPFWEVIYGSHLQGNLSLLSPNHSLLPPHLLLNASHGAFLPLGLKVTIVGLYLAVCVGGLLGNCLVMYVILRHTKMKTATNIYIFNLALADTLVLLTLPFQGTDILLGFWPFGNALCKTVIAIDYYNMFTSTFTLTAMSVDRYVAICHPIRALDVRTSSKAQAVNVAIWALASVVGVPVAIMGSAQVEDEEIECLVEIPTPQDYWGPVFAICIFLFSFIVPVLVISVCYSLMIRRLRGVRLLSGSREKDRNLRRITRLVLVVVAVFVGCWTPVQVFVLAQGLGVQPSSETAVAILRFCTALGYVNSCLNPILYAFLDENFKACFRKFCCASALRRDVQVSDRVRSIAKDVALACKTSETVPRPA

Assays:
δ opioid receptor [1] = target: T1, δ opioid receptor (Homo sapiens (Human), UniProt P41143); assay: δ-opioid receptor functional assay ([35S]GTPγS); details: for GTPγS Opioid Receptor δ Emax: [35S]GTPγS functional assay; for EC50: read-out: GTPγS Opioid Receptor δ EC50, [35S]GTPγS functional assay
κ opioid receptor [2] = target: T2, κ opioid receptor (Homo sapiens (Human), UniProt P41145); assay: κ-opioid receptor functional assay ([35S]GTPγS); details: for GTPγS Opioid Receptor κ Emax: [35S]GTPγS functional assay; for EC50: read-out: GTPγS Opioid Receptor κ EC50, [35S]GTPγS functional assay
μ-opioid receptor [3] = target: T3, μ-opioid receptor (Homo sapiens (Human), UniProt P35372); assay: μ-opioid receptor functional assay ([35S]GTPγS); details: for EC50: read-out: GTPγS Opioid Receptor μ EC50, [35S]GTPγS functional assay
δ opioid receptor [4] = target: T1, δ opioid receptor; assay: δ-opioid receptor binding assay ([3H]-Naltrindole dose-displacement); details: read-out: Binding Affinity, Opioid Receptor δ
[5] = target: T4, human opioid receptor-like (ORL-1) (Homo sapiens (Human), UniProt P41146); assay: ORL-1 receptor functional assay ([35S]GTPγS)
μ-opioid receptor [6] = target: T3, μ-opioid receptor; assay: μ-opioid receptor binding assay ([3H]-diprenorphine dose-displacement); details: read-out: Binding Affinity, Opioid Receptor μ
[7] = target: T4, human opioid receptor-like (ORL-1); assay: ORL-1 receptor binding assay ([3H]-nociceptin)
κ opioid receptor [8] = target: T2, κ opioid receptor; assay: κ-opioid receptor binding assay ([3H]-U69,593 dose-displacement); details: read-out: Binding Affinity, Opioid Receptor κ

**Q.** With “(4R,4aS,6R,7R,7aR,12bS)-6-((benzyloxy)methyl)-3-(cyclopropylmethyl)-7-methoxy-1,2,3,4,5,6,7,7a-octahydro-4a,7-ethano-4,12-methanobenzofuro[3,2-e]isoquinolin-9-amine” as the substance, how does the “GTPγS Opioid Receptor δ Emax” value (δ opioid receptor [1]) read?
**A.** 81.00%

**Q.** What about the EC50 (δ opioid receptor [1]) of the same substance?
**A.** 14.7 nM

**Q.** What about the “GTPγS Opioid Receptor κ Emax” value (κ opioid receptor [2]) of the same substance?
**A.** 107.67%

**Q.** What about the EC50 (κ opioid receptor [2]) of the same substance?
**A.** 4.27 nM

**Q.** And the “GTPγS Opioid Receptor μ Emax” value (μ-opioid receptor [3]; [35S]GTPγS functional assay)?
**A.** 41.33%

**Q.** What about the EC50 (μ-opioid receptor [3]) of the same substance?
**A.** 10.8 nM

**Q.** What about the Ki (δ opioid receptor [4]) of the same substance?
**A.** 15 nM

**Q.** And the “GTPγS ORL-1 Emax” value ([5]; [35S]GTPγS functional assay)?
**A.** 22.67%

**Q.** And the EC50 ([5]; read-out: GTPγS ORL-1 EC50, [35S]GTPγS functional assay)?
**A.** 1640 nM

**Q.** What about the Ki (μ-opioid receptor [6]) of the same substance?
**A.** 1.52 nM

**Q.** What about the Ki ([7]; read-out: Binding Affinity, ORL-1) of the same substance?
**A.** 859 nM

**Q.** What about the Ki (κ opioid receptor [8]) of the same substance?
**A.** 0.09 nM

**Q.** How did the “GTPγS Opioid Receptor δ Emax” value (δ opioid receptor [1]) turn out when “(4R,4aS,6S,7R,7aR,12bS)-6-((benzo[d]oxazol-2-ylthio)methyl)-3-(cyclopropylmethyl)-7,9-dimethoxy-1,2,3,4,5,6,7,7a-octahydro-4a,7-ethano-4,12-methanobenzofuro[3,2-e]isoquinoline” was run?
**A.** 78.67%

**Q.** What about the EC50 (δ opioid receptor [1]) of the same substance?
**A.** 431 nM

**Q.** What about the “GTPγS Opioid Receptor κ Emax” value (κ opioid receptor [2]) of the same substance?
**A.** 90.75%

**Q.** And the EC50 (κ opioid receptor [2])?
**A.** 108 nM

**Q.** And the “GTPγS Opioid Receptor μ EC50” value (μ-opioid receptor [3]; [35S]GTPγS functional assay)?
**A.** Inactive

**Q.** What about the “GTPγS Opioid Receptor μ Emax” value (μ-opioid receptor [3]; [35S]GTPγS functional assay) of the same substance?
**A.** 1.00%

**Q.** And the Ki (δ opioid receptor [4])?
**A.** 2430 nM

**Q.** And the Ki (μ-opioid receptor [6])?
**A.** 37.5 nM

**Q.** And the “Binding Affinity, ORL-1” value [7]?
**A.** Inactive

**Q.** And the Ki (κ opioid receptor [8])?
**A.** 6.69 nM

**Q.** Which results are given for “(S)-((4R,4aS,6R,7R,7aR,12bS)-3-(cyclopropylmethyl)-7,9-dimethoxy-1,2,3,4,5,6,7,7a-octahydro-4a,7-ethano-4,12-methanobenzofuro[3,2-e]isoquinolin-6-yl)methyl 2-amino-3-methylbutanoate”?
**A.** GTPγS Opioid Receptor κ Emax (κ opioid receptor [2]): 35.83%; EC50 (κ opioid receptor [2]): 47.6 nM; GTPγS Opioid Receptor μ Emax (μ-opioid receptor [3]; [35S]GTPγS functional assay): 11.33%; EC50 (μ-opioid receptor [3]): 79.3 nM; Ki (μ-opioid receptor [6]): 60.1 nM; Ki (κ opioid receptor [8]): 1.02 nM
